Results published in patent US20030022283A1 (published 2003).

Chains of the proteins cited; added tags and fusions are not shown. Lines headed by an entry give the natural chain unless they say otherwise; changes in a name come on top. A line that says so, or that is headed by a name, gives the form on record, which may keep a tag or linker.
UniProt Q9ERC0, entry or part of it limits assumed, form in doubt: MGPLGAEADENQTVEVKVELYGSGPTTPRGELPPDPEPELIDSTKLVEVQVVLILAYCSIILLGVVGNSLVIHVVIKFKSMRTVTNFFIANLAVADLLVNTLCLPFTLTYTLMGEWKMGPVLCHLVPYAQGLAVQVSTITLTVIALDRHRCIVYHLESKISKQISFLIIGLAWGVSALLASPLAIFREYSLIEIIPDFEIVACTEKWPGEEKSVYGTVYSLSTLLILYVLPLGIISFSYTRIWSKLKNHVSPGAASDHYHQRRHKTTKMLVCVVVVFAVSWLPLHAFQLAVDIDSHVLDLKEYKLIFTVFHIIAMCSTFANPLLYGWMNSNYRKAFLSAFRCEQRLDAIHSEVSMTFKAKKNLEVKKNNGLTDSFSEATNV

T1: Human NPY Y5 receptor (human, UniProt Q15761 1-445)
T1 construct: also called HUMAN Clone; human Y5
T1 sequence: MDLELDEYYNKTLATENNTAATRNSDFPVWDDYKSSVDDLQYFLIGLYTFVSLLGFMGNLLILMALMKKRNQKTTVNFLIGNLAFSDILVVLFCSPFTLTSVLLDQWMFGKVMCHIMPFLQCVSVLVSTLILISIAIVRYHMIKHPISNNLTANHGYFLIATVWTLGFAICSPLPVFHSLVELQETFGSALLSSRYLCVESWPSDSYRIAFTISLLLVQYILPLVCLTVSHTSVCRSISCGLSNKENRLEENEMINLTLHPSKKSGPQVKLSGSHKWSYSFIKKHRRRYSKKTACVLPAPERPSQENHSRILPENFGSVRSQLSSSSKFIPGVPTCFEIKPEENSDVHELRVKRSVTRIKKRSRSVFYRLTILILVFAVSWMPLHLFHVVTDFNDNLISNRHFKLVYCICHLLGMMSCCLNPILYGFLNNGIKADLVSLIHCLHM

T2: Rat NPY Y5 receptor, Y861 clone (rat, UniProt Q63634 1-445)
T2 construct: also called RAT Y861 Clone; Rat Y5 (Y861)
T2 sequence: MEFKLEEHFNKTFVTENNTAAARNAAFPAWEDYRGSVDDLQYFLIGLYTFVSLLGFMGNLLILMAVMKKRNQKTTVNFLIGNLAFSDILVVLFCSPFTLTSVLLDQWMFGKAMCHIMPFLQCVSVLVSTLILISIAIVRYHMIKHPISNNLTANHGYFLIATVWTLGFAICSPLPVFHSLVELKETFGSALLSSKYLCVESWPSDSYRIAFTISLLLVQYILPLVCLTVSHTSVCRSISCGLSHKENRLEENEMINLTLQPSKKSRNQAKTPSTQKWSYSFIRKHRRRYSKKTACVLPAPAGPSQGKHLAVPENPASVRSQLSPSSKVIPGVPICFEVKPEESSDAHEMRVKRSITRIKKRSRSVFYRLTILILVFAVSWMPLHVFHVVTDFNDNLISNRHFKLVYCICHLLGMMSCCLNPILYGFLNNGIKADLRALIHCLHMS

T3: Rat NPY Y5 receptor, 6B clone (Y217.24.13.6B) (rat, UniProt Q63634 1-445)
T3 construct: 445 amino acid protein; assayed as membranes of transiently transfected COS-7 cells; Has proline where Y555/Y589/Y861 have leucine in the first transmembrane domain; also called RAT 6B Clone; Y5 clone
T3 sequence: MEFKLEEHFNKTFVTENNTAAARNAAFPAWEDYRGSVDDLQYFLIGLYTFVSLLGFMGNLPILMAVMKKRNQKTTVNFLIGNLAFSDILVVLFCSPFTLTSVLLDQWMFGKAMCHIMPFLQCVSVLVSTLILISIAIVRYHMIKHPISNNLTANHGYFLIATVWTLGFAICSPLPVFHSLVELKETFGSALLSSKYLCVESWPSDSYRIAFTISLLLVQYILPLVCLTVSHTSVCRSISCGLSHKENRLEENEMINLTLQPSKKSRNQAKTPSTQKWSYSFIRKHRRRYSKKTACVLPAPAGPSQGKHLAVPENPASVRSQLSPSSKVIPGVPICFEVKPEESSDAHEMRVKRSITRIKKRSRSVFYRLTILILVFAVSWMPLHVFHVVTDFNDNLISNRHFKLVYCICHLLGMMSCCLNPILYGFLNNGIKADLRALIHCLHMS


Experiments:
Human NPY Y5 receptor = target: T1, Human NPY Y5 receptor; experiment: competition with [125I]PYY, membranes of stably transfected 293 cells
[1] = target: T2, Rat NPY Y5 receptor, Y861 clone; experiment: competition with [125I]PYY, membranes of stably transfected 293S cells
[2] = target: T3, Rat NPY Y5 receptor, 6B clone …; experiment: competition with [125I]PYY, membranes of transiently transfected COS-7 cells
Source text: (§1) All other peptides were purchased from either Peninsula (Belmont, Calif.) or Bachem (Torrance, Calif.).

[3] = target: T2, Rat NPY Y5 receptor, Y861 clone; experiment: as above
Source text: as §1

[4] = target: T4, Rat NPY Y2 receptor (clone) (rat, UniProt Q9ERC0 1-381); experiment: competition with [125I]PYY, rat Y2 clone
T4 construct: also called Rat Y2 (clone)

Row | Ki (Human NPY Y5 receptor) [nM] | Ki [1] [nM] | Ki [2] [nM] | Ki [3] [nM] | IC50 [4] [nM] | Binder
1 | 429 | 108 | 330 | 587 |  | YYSALRHYINLITRQRY (peptide, UniProt P01303 48-64, looked up, range 20-36; also called r/h(20-36)NPY) [rat/human (20-36)NPY]
2 |  |  |  |  | 0.89 | SALRHYINLITRQRY (peptide, UniProt P01303 50-64, looked up, range 22-36; also called r/h(22-36)NPY) [rat/human (22-36)NPY]
